Broadly, the IC50 is the point on the concentration scale where inhibition reaches its midpoint.

Amino acid sequences for entries named in this document (tags omitted).
UniProt Q99640, whole entry: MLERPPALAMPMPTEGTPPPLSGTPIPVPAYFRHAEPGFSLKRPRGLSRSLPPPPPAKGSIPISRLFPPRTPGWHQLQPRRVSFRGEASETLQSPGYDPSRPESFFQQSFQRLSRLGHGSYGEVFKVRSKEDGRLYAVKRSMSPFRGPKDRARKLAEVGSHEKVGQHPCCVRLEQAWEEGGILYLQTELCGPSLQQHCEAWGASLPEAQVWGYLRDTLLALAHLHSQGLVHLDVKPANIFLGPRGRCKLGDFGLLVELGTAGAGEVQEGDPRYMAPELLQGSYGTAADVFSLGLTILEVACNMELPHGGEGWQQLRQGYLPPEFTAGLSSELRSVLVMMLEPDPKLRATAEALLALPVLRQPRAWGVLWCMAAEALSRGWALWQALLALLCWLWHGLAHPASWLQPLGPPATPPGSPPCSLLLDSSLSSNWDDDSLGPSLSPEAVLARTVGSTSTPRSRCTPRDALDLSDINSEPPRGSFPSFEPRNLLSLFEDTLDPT

This note sets out measurements from patent US20260062412A1, “NITROGEN-CONTAINING HETEROCYCLIC COMPOUND HAVING MYT1 INHIBITORY ACTIVITY” (CHUGAI SEIYAKU KABUSHIKI KAISHA, priority 2023, published 2026).

Experiment [1] addresses T1, MYT1 protein (Homo sapiens (Human), UniProt Q99640). As to the kind of experiment: MYT1 kinase activity inhibition test (ELISA, phosphorylation of Y15 of CDK1). As to conditions: read-out: ELISA IC50; phosphorylation level of Y15 of CDK1 protein caused by MYT1 protein, 60 minutes. On the procedure: The MYT1 kinase activity inhibitory capacity of each compound was evaluated by evaluating the phosphorylation level of Y15 of CDK1 protein caused by MYT1 protein, by ELISA. The kit of CycLex Weel Kinase Assay/Inhibitor Screening Kit Ver. 3 (manufactured by MBL, CY-1172V3) was used. Using Kinase Buffer, 10 μL of 5 nM MYT1 protein (manufactured by Carna Biosciences, Inc.) was prepared. In addition, 30 μL of 83.3 μM of ATP was prepared using Kinase Buffer. In addition, 10 μL of each compound was diluted to each concentration using Kinase Buffer. 30 μL of ATP was added to the plate of the kit, and thereafter, 10 μL of each compound was added thereto. Further, 10 μL of the diluted MYT1 protein solution was added thereto, and then the mixture was mixed, which was allowed to stand at room temperature for 60 minutes. The reaction solution was removed from each well, and each well was washed using Wash Buffer. After Wash Buffer was removed, 100 μL of HRP conjugated Anti-phospho-tyrosine antibody was added to each well, which was allowed to stand at room temperature for 60 minutes. […] Absorbances at 450 nm and 590 nm were measured using Envision (manufactured by PerkinElmer). The phosphorylation level of CDK1 protein was evaluated for each well by subtracting the absorbance at 590 nm from the absorbance at 450 nm. […]
(ELISA stands for enzyme-linked immunosorbent assay.)

For experiment [2], the target named is T1, MYT1 protein. As to the kind of experiment: Test for binding to ATP binding site of MYT1 (Kinase Tracer 178 / Eu-Anti-GST antibody TR-FRET). The note with it: read-out: Binding IC50; ATP binding site of MYT1, 30 minutes at room temperature. (In general: Time-resolved FRET reads energy transfer from a long-lived donor to a nearby acceptor.)

As to `Nc1c(-c2ccc(F)c3[nH]ncc23)c2cc(Br)c3cccnc3c2[nH]c1=O`, the figures for the IC50 on MYT1 protein [1] and on MYT1 protein [2] were 0.017 µM and 0.009 µM, respectively.
